Results published in patent publication US20190151346A1, “COMBINATIONS THERAPIES FOR THE TREATMENT OF CANCER” (INSERM (INSTITUTE NATIONAL DE LA SANTÉ ET DE LA RECHERCHE …, priority 2016, published 2019).

System: EGFR
Test: Tyrosine phosphorylation by Western blotting: EGFR phosphorylation in TNBC cell lines
Type: cell-based
Experimental: BT20 and MDA-MB468 triple negative (HER2-, ER-, PR-) were obtained from American Type Culture Collection (ATCC N°HTB19, and ATCC N°HTB132, respectively). […] MDA-MB468 cells were grown in a complete DMEM-F12 media with glutamine, 10% FCS and penicillin—streptomycin. All cells were maintained in a humidified 5% CO2 atmosphere at 37° C. All experiments were conducted with cells at confluency and starved for an overnight.
Cells (3×10^5) were seeded in 6-well plates in complete medium for 24 hours then starved for another overnight. Cells were then stimulated with IL-17E (10 ng/ml), EGF (10 ng/ml), or a combination of both for 30 min in serum-free medium. Cells were then lysed in 1% Triton X100 buffer and left on ice for 1 hours. Protein samples were then subjected to 8% SDS-PAGE. Western blotting using specific antibodies assessed then the phosphorylation of the various kinases.

COc1cc2ncnc(Nc3ccc(F)c(Cl)c3)c2cc1OCCCN1CCOCC1 [Iressa, Gefitinib]
EGFR tyrosine phosphorylation induced by the combination of IL-17E and EGF (BT20 and MDA-MB468, Iressa 0.25 μM, FIG. 2B): remarkably decreased | EGFR tyrosine phosphorylation induced by the combination of IL-17E and EGF (IJG-1731, Iressa 0.25 μM, FIG. 2B): to a lesser extends | IL-17B and -E induced Y1086EGFR phosphorylation (TNBC cell lines, in the presence of Iressa, discussion): specific inhibition | IL-17E- and EGF-induced Y1086-EGFR phosphorylation (three cell lines (IJG-1731, BT20, MDA-MB468), Iressa 0.25 μM, FIG. 2B): similarly decreased
